Measured values from patent US11547130B2, “Nanocomposite bacteriostatic material and a preparation method and an application thereof” (Tianjin University of Science and Technology, priority 2019, dated 2023).

Test system: Bacillus subtilis
Assay: Thermostability: antibacterial circle experiment after heat treatment under neutral condition
Assay type: cell-based
Settings: pH 7; heat treatment at 60° C. for 30 min; read out by antibacterial circle
Protocol: The pH value of each material in the above groups was regulated to 7 with HCl and subjected to the heat treatment at 60° C. for 30 min; and with the use of an antibacterial circle experimental method, the antibacterial effect was determined according to a diameter of an antibacterial circle.
Bacillus subtilis was cultured for overnight in a shake flask, and a bacteria solution having a concentration of 10^8 CFU/mL was selected as a seed solution for later use. The seed solution was inoculated as per 2% of inoculum size to an LB semi-solid culture medium sterilized at about 50° C. under a sterile condition, and mixed quickly and uniformly to pour into a culture dish, 20 mL being poured into each culture dish. Upon solidification, three holes were punched on the culture dish by a puncher, and different antibacterial samples were respectively added to each hole, an added amount of each group being 150 μL. Upon the completion, each culture dish was placed into a constant temperature incubator at 37° C., and cultured for 16 h to observe and measure a size of the antibacterial circle.

nisin was tested, and the thermostability was “easily inactivated”.
